Test results from patent US20260384426A1, “HETEROCYCLIC GLP-1 AGONISTS” (published 2026).
pEC50: −log10 of the molar value.

The chains behind the UniProt entries cited, without tags or fusion partners. Residues count along the entry.
UniProt P43220, 24-463 limits assumed: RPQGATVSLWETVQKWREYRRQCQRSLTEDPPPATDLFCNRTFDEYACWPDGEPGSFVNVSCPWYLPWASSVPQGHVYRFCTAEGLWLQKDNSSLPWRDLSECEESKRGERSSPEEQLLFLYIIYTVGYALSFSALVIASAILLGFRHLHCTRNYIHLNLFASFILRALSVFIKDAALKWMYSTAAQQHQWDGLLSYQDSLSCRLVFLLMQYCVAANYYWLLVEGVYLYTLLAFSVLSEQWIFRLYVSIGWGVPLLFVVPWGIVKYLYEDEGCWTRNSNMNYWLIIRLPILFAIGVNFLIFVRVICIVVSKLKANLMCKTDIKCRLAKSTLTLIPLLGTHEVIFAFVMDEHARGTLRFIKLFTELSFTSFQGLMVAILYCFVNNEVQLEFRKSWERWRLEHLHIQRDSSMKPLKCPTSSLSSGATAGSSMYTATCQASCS

target: GLP-1 Receptor (Homo sapiens, UniProt P43220); assay: GLP-1R agonist cAMP stimulation assay in HEK293/GLP1R/CRE-LUC cells; conditions: read-out: EC50 (GLP-1R agonist cAMP stimulation assay); HEK293/CRE-Luc cells stably expressing GLP-1 receptor; 37 °C, 30 min; 0.5 mM IBMX, 0.1% BSA; cAMP dynamic 2 Kit (Cisbio)
Procedure: Activation of GLP-1 receptor is known to stimulate cyclic AMP (cAMP) production in cells which indicates primary coupling to the G as subunit of the G protein heterotrimeric complex.
To optimize functional activity directed toward G as coupling, a HEK293/CRE-Luc cell line developed by HDB stably expressing the GLP-1 Receptor was used. 200× concentration of compound working solutions were prepared (Agilent Technologies Bravo) with 1/2 log serial dilution in 384-well Echo LDV plate (Labcyte, Cat #LP-0200). 50 nL/well 200× concentration of compound working solutions were moved to 384-well white low volume plate (Greiner, Cat #784075) using Labcyte ECHO550.1×10^5 cells/mL HEK293/GLP1R/CRE-LUC (HD Biosciences) cell suspensions prepared with assay buffer [DPBS containing 0.5 mM IBMX (Sigma, Cat #I5879) and 0.1% BSA (GENVIEW, Cat #FA016-100g)], 10 μL cell suspensions were added to each well of previous generated assay plate which already contains 50 nL compound at 200× concentration using ThermoFisher Multidrop Combi (1000 cells/well). The plate was sealed and incubated at 37 °C with 5% CO2 for 30 min.
After incubation the cAMP assay signal was generated using cAMP dynamic 2 Kit (Cisbio). 5 μL cAMP-d2 working solution was added to each well, followed with 5 μL Anti-cAMP antibody-cryptate working solution added to each well using ThermoFisher Multidrop Combi. Incubate at room temperature for 1 hour protected from light. Read the fluorescence at 665 and 615 nm with Reader PerkinElmer EnVision.
% Activity=100%×(mean RLU of test sample−mean RLU of vehicle control)/(mean RLU of MAX control−mean RLU of vehicle control)

Compound | pEC50
Cc1cc(-n2c(N3CC(c4cccc(S(C)(=O)=O)c4)C3)nc3c(c2=O)CCN(C(=O)c2cc4cc(C5CCOCC5)ccc4n2[C@@]2(c4noc(=O)[nH]4)C[C@@H]2C)[C@H]3C)cc(C)c1F | 7.60
Cc1cc(-n2c(NCCc3ccc(S(=O)(=O)C4CC4)cc3)nc3c(c2=O)CCN(C(=O)c2cc4cc(C5CCOCC5)ccc4n2[C@@]2(c4noc(=O)[nH]4)C[C@@H]2C)[C@H]3C)cc(C)c1F | 7.89
C[C@H]1c2nc(N3CCN(Cc4ccccc4)C3=O)n(-c3ccccc3)c(=O)c2CCN1C(=O)c1cc2cc(C3CCOCC3)ccc2n1[C@@]1(c2noc(=O)[nH]2)C[C@@H]1C | 7.42
Cc1nnc(Cn2c(C(=O)N3CCc4c(nc(N5CCN(c6ccccc6)C5=O)n(-c5cc(C)c(F)c(C)c5)c4=O)C3)cc3cc(C4CCOCC4)ccc32)o1 | 6.05
COc1cccc(CN2CCN(c3nc4c(c(=O)n3-c3cc(C)c(F)c(C)c3)CCN(C(=O)c3cc5cc(C6CCOCC6)ccc5n3[C@@]3(c5noc(=O)[nH]5)C[C@@H]3C)[C@H]4C)C2=O)c1 | 6.85
Cc1cc(-n2c(NCCc3ccc4c(cnn4C)c3)nc3c(c2=O)CCN(C(=O)c2cc4cc(C5CCOCC5)ccc4n2[C@@]2(c4noc(=O)[nH]4)C[C@@H]2C)C3)cc(C)c1F | 6.77
C[C@H]1C[C@]1(c1noc(=O)[nH]1)n1c(C(=O)N2CCc3c(nc(N4CCN(c5ccccc5)C4=O)n(-c4ccccc4CC(=O)O)c3=O)C2)cc2cc(C3CCOCC3)ccc21 | 6.85
Cc1cc(-n2c(N3CC(c4ccc5c(cnn5C)c4)C3)nc3c(c2=O)CCN(C(=O)c2cc4cc(C5CCOCC5)ccc4n2[C@@]2(c4noc(=O)[nH]4)C[C@@H]2C)C3)cc(C)c1F | 6.72
C[C@H]1C[C@]1(c1noc(=O)[nH]1)n1c(C(=O)N2CCc3c(nc(N4CCN(c5ccccc5)C4=O)n(-c4cccc(CC(=O)O)c4)c3=O)C2)cc2cc(C3CCOCC3)ccc21 | 6.48
Cc1cc(-n2c(N3CCN(c4ccccc4)C3=O)nc3c(c2=O)CCN(C(=O)c2cc4cc(C5CCOCC5)ccc4n2C2(c4nc(=O)o[nH]4)CC2)C3)cc(C)c1F | 6.96
Cc1cc(-n2c(N3CCN(C(C)c4ccccc4)C3=O)nc3c(c2=O)CCN(C(=O)c2cc4cc(C5CCOCC5)ccc4n2[C@@]2(c4noc(=O)[nH]4)C[C@@H]2C)[C@H]3C)cc(C)c1F (stereo partly shown) | 7.14
Cc1cc(-n2c(N3CC(c4ccccc4)C3)nc3c(c2=O)CCN(C(=O)c2cc4cc(C5CCOCC5)ccc4n2[C@@]2(c4noc(=O)[nH]4)C[C@@H]2C)[C@H]3C)cc(C)c1F | 7.10
COc1ccc(CN2CCN(c3nc4c(c(=O)n3-c3cc(C)c(F)c(C)c3)CCN(C(=O)c3cc5cc(C6CCOCC6)ccc5n3[C@@]3(c5noc(=O)[nH]5)C[C@@H]3C)[C@H]4C)C2=O)cc1 | 6.85
Cc1cc(-n2c(NC(=O)OCc3ccccc3)nc3c(c2=O)CCN(C(=O)c2cc4cc(C5CCOCC5)ccc4n2[C@@]2(c4noc(=O)[nH]4)C[C@@H]2C)[C@H]3C)cc(C)c1F | 7.14
Cc1cc(-n2c(N3CC(c4ccc(S(=O)(=O)C5CC5)cc4)C3)nc3c(c2=O)CCN(C(=O)c2cc4cc(C5CCOCC5)ccc4n2[C@@]2(c4noc(=O)[nH]4)C[C@@H]2C)[C@H]3C)cc(C)c1F | 7.77
Cc1cc(-n2c(N3CCN(Cc4ccccc4)C3=O)nc3c(c2=O)CCN(C(=O)c2cc4cc(C5CCOCC5)ccc4n2[C@@]2(c4noc(=O)[nH]4)C[C@@H]2C)[C@H]3C)cc(C)c1F | 7.92
C[C@H]1C[C@]1(c1noc(=O)[nH]1)n1c(C(=O)N2CCc3c(nc(N4CCN(c5ccccc5)C4=O)n(-c4ccccc4)c3=O)C2)cc2cc(C3CCOCC3)ccc21 | 7.47
C[C@H]1C[C@]1(c1noc(=O)[nH]1)n1c(C(=O)N2CCc3c(nc(N4CCN(c5ccccc5)C4=O)n(-c4ccccc4C(=O)O)c3=O)C2)cc2cc(C3CCOCC3)ccc21 | 6.55
Cc1cc(-n2c(OCCc3ccc(S(=O)(=O)C4CC4)cc3)nc3c(c2=O)CCN(C(=O)c2cc4cc(C5CCOCC5)ccc4n2[C@@]2(c4noc(=O)[nH]4)C[C@@H]2C)[C@H]3C)cc(C)c1F | 7.16
Cc1cc(-n2c(N3CCC(c4ccccc4)CC3)nc3c(c2=O)CCN(C(=O)c2cc4cc(C5CCOCC5)ccc4n2[C@@]2(c4noc(=O)[nH]4)C[C@@H]2C)C3)cc(C)c1F | 6.39
Cc1cc(-n2c(N3CCN(Cc4ccc(S(=O)(=O)C5CC5)cc4)C3=O)nc3c(c2=O)CCN(C(=O)c2cc4cc(C5CCOCC5)ccc4n2[C@@]2(c4noc(=O)[nH]4)C[C@@H]2C)[C@H]3C)cc(C)c1F | 6.62
C[C@H]1C[C@]1(c1noc(=O)[nH]1)n1c(C(=O)N2CCc3c(nc(N4CCN(c5ccccc5)C4=O)n(-c4cccc(C(=O)O)c4)c3=O)C2)cc2cc(C3CCOCC3)ccc21 | 6.11
Cc1cc(-n2c(N3CCC(c4ccccc4)C3)nc3c(c2=O)CCN(C(=O)c2cc4cc(C5CCOCC5)ccc4n2[C@@]2(c4noc(=O)[nH]4)C[C@@H]2C)C3)cc(C)c1F (stereo partly shown) | 6.55
Cc1cc(-n2c(NCCc3ccccc3)nc3c(c2=O)CCN(C(=O)c2cc4cc(C5CCOCC5)ccc4n2C2(c4noc(=O)[nH]4)CC2)C3)cc(C)c1F | 6.55
Cc1cc(-n2c(N3CCN(c4ccccc4)C3=O)nc3c(c2=O)CCN(C(=O)c2cc4cc(C5CCOCC5)ccc4n2Cc2cnccn2)C3)cc(C)c1F | 6.46
COCc1ccccc1-n1c(N2CCN(c3ccccc3)C2=O)nc2c(c1=O)CCN(C(=O)c1cc3cc(C4CCOCC4)ccc3n1[C@@]1(c3noc(=O)[nH]3)C[C@@H]1C)C2 | 7.48
Cc1cc(-n2c(N3CCN(c4ccccc4)C3=O)nc3c(c2=O)CCN(C(=O)c2cc4cc(C5CCOCC5)ccc4n2[C@@]2(c4noc(=O)[nH]4)C[C@@H]2C)[C@H]3C)cc(C)c1F | 8.00
COCc1cccc(-n2c(N3CCN(c4ccccc4)C3=O)nc3c(c2=O)CCN(C(=O)c2cc4cc(C5CCOCC5)ccc4n2[C@@]2(c4noc(=O)[nH]4)C[C@@H]2C)C3)c1 | 7.31
